In PubChem BioAssay AID889 (National Center for Advancing Translational Sciences (NCATS), 2007) one finds activity change, negative = inhibition data, which are given here for two molecules.

Protein sequences, listed by entry. Tags and fused reporters are not part of them. Residues count along the entry.
UniProt P55210, 24-198 limits assumed: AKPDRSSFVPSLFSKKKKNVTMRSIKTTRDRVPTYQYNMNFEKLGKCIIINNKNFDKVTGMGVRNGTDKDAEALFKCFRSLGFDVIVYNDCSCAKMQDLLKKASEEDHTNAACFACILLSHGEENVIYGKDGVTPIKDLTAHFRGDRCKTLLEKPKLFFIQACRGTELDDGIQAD
UniProt P55210, 207-303 limits assumed: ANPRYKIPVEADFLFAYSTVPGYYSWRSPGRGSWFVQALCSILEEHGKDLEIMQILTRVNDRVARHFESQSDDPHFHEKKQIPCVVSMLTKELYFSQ

This is a selection; strong and weak results do not stand in their true shares. Inconclusive results are not listed. Activity calls are given as the source filed them. Calls follow the shape of the dose curve; as a rule, active = well fitted inhibition curve with a large enough effect in the main read-out, with a control signal flat (not every such curve was filed as active); inconclusive = small, poorly fitted or top-dose-only effect, or a change in a side signal; inactive = flat fitted curve, though single readings scatter.

In the test the target is Caspase-7 (Homo sapiens) (UniProt P55210). Nature of the test: qHTS Assay for Allosteric/Competitive Inhibitors of Caspase-7. Also: % of control where 0% means no effect. As to conditions: recombinant caspase-7, Ac-DEVD-AFC fluorescence rate; at 57.5 µM (top of the series). From the text: NIH Molecular Libraries Screening Centers Network [MLSCN]
NIH Chemical Genomics Center [NCGC]
PI Name: Dr. James Wells,
Dr. Enrique Perez-Paya, Dr.Janice Williams, Dr. Dennis Wolan, a person
The caspases (Cysteine Aspartyl Protease) comprise a related family of 14 dimeric proteases that are critical mediators of apoptosis (programmed cell death) and inflammation. The caspases represent an important class of drug targets for stroke, ischemia, cancer and inflammatory diseases. […] One goal of this project was to identify compounds that act as allosteric inhibitors via stabilizing the procaspase form of the enzyme. […]
The biochemical assay was configured using purified caspase 7 at a high enzyme concentration to promote formation of the homodimers and thus facilitate the identification of allosteric inhibitors. […] After initiation of the assay with substrate the plates were rapidly read using an automated robotic system (Kalypsys, Inc.) to maintain consistent timing. […]
Caspase 7 was prepared in buffer (50 mM HEPES pH 7.5, 50 mM KCl, 200 mM NaCl, 10 mM DTT, 0.1% CHAPS) at a concentration of 66.6 nM and 3 uL was dispensed to all wells using black solid Kalypsys 1536-well plates. […] The plates were then exposed using 405 nm excitation/520 nm emission filters for 4 sec and read at 20 sec intervals for 3 min. […]
On the technique in general: qHTS replaces the single test concentration by a dilution series.
On to `CN(CCCl)CCCl`, for which the activity change, negative = inhibition was inactive: -2.3%.
Then `O=[N+]([O-])C(Cl)(Cl)Cl`, with inactive: 0.777%.
